The values below are quoted from earlier work in US9062321B2 (priority 2004, dated 2015).

The chains behind the UniProt entries cited, without tags or fusion partners. Residues count along the entry.
UniProt P22303, 32-614: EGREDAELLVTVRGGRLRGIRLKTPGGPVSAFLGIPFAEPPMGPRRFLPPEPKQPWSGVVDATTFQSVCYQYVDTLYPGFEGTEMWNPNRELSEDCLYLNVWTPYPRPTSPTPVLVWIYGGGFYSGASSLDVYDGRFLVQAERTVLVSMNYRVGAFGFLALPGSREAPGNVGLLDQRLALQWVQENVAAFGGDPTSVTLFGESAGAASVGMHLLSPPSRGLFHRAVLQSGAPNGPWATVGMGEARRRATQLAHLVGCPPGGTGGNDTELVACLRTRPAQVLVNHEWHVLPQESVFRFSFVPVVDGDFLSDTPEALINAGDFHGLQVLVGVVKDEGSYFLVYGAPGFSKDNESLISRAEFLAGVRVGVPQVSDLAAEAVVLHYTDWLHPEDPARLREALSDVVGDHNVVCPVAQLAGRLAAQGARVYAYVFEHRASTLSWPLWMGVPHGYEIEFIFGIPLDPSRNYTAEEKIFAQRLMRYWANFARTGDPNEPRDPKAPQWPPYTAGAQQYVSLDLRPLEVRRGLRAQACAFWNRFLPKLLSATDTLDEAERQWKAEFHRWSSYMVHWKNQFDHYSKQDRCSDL
UniProt P06276, 29-602: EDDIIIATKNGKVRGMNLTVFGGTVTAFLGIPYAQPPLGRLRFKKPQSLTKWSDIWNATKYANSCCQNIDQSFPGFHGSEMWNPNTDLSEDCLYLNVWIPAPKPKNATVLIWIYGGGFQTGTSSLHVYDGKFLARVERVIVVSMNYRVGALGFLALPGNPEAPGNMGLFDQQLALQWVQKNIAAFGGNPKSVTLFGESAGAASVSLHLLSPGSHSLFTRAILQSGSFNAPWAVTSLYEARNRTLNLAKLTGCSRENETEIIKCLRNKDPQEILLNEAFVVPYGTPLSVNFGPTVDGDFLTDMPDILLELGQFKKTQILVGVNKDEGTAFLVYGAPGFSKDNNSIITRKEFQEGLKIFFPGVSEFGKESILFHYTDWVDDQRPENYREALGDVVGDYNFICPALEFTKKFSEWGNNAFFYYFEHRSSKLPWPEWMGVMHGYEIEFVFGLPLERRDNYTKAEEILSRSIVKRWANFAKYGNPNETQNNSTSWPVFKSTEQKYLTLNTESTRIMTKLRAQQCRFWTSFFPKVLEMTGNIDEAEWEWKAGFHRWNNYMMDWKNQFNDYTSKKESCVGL

In one data set the target is AChE (Homo sapiens, UniProt P22303). The following applies: cited from earlier work.
The next data set has as its target BuChE (Homo sapiens, UniProt P06276). The following applies: read-out: Ki (measure of inhibitor efficiency) for BuChE; cited from earlier work.

Usually Ki stands for a measure of affinity in units of concentration, obtained from inhibition or displacement. For the compound `C=CC[N+](C)(C)c1ccc(CCC(=O)CCc2ccc([N+](C)(C)CC=C)cc2)cc1` [BW284c51, 1,5-bis(4-allyldimethylammoniumphenyl)pentan-3-one dibromide], at AChE, the “sensitivity of AChE to the inhibitor compared with BuChE” value is given as “much more sensitive”. The Ki at BuChE was 14 µM.
